ChEMBL document CHEMBL1138434, “Reversal of fluconazole resistance in multidrug efflux-resistant fungi by the Dysidea arenaria sponge sterol 9alpha,11alpha-epoxycholest-7-ene-3beta,5alpha,6alpha,19-tetrol 6-acetate” (J Nat Prod, 2003)

Tests used:
Saccharomyces cerevisiae [1] = details: DSY 390, 30 uM
Saccharomyces cerevisiae [2] = details: DSY 417, 30 uM
Saccharomyces cerevisiae [3] = details: DSY 416, 30 uM
Saccharomyces cerevisiae [4] = details: DSY 415, 30 uM
Saccharomyces cerevisiae [5] = details: DSY 426, 30 uM

Measured: MIC

CC(=O)O[C@H]1C=C2[C@@H]3CC[C@H]([C@H](C)CCCC(C)C)[C@@]3(C)C[C@@H]3O[C@@]23[C@@]2(CO)CC[C@H](O)C[C@]12O
inactive: Saccharomyces cerevisiae [1] | Saccharomyces cerevisiae [2] | Saccharomyces cerevisiae [3] | Saccharomyces cerevisiae [4] | Saccharomyces cerevisiae [5]

Active and inactive are the calls of the source.
